By Ki is commonly meant the dissociation constant of the complex between target and ligand, obtained from inhibition or displacement.

Amino acid sequences for entries named in this document (tags omitted). A change or cut given only in a name is not applied to a line headed by its entry.
UniProt P30994: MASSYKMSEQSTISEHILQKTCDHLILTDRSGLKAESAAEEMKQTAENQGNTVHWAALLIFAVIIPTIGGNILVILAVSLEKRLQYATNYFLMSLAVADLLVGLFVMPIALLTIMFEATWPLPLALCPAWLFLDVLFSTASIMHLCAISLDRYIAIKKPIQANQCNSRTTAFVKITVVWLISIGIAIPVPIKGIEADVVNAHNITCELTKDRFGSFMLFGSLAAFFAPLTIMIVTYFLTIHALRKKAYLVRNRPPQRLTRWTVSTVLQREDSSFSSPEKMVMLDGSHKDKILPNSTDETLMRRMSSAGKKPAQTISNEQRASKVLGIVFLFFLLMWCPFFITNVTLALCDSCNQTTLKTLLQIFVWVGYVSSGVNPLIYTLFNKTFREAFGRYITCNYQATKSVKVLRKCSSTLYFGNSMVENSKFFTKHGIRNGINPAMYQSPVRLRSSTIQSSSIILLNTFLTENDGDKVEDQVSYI
UniProt P08909: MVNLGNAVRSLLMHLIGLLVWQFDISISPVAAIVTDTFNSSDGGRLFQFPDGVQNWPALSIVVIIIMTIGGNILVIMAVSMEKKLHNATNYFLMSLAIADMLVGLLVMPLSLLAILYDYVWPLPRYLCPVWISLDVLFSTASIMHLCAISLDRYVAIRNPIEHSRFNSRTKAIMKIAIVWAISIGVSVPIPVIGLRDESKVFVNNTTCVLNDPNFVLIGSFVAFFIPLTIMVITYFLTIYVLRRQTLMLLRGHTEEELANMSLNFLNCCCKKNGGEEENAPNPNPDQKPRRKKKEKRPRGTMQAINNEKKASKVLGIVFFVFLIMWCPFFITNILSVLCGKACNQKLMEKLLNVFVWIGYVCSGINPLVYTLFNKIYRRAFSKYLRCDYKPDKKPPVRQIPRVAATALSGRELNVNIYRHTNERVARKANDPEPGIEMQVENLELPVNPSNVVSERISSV
UniProt P14842: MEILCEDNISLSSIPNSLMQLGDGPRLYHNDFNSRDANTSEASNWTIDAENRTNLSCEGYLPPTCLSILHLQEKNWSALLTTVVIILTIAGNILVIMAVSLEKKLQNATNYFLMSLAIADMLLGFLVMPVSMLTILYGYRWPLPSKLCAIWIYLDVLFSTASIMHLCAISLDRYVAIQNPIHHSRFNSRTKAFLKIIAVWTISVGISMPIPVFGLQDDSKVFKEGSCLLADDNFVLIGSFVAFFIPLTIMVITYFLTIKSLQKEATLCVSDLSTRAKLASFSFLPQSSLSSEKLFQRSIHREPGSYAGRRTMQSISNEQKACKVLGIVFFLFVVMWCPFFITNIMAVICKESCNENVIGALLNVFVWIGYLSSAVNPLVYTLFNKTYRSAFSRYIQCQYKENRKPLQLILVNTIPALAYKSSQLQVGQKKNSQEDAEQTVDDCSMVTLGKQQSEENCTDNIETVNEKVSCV

The target of this test is Serotonin 2 (5-HT2) receptor (Rattus norvegicus, UniProt P30994+P08909+P14842). Briefly: The compound was tested in vitro for binding affinity towards 5-hydroxytryptamine 2 receptor by displacing [125]I-LSD radioligand. The format is protein assay.

In turn, `O=C(CCCN1CCC2(CC1)C(=O)NCN2c1ccccc1)c1ccc(F)cc1` [SPIPERONE] had a Ki of 0.45 nM. In other words, the sub-nanomolar range.

For the origin of these results see ChEMBL document CHEMBL1125573 (J Med Chem, 1992).
